Measurements taken from ChEMBL document CHEMBL1201862, “PubChem BioAssay data set” (2004).
The list shows a part of the results. Cut-off read from the data, not from the text of the source, for most assays here: active = GI50 up to about 1.1 µM and inactive = higher. Only a part of the results of these assays is listed, not drawn at random.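 In this assay, cells in 96-well plates receive the compound at five concentrations for 48 hours. Endpoints are linearly interpolated between the surrounding concentrations. GI50 marks 50% less growth.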 For some assays here: Entries with a potency or affinity are not part of this list.

Columns and labels:
Assay in all cases: NCI tumour cell line growth inhibition, 48 h
[1] = system: 786-0
[2] = system: A498
[3] = system: A549
[4] = system: ACHN
[5] = system: BT-549
[6] = system: CAKI-1
[7] = system: COLO 205
[8] = system: DU-145
[9] = system: EKVX
[10] = system: HCC 2998
[11] = system: HCT-116
[12] = system: HCT-15
[13] = system: HOP-62
[14] = system: HOP-92
[15] = system: CCRF-CEM
[16] = system: HL-60
[17] = system: DLD-1
[18] = system: DMS-114
[19] = system: HOP-18
[20] = system: DMS-273

Measured: GI50

Cc1ccc2ccc(C)c(C)c2c1.O=[N+]([O-])c1cc([N+](=O)[O-])c(O)c([N+](=O)[O-])c1O
inactive: [1] > 100 µM | [2] > 100 µM | [3] > 100 µM | [4] > 100 µM | [5] > 100 µM | [6] 58.1 µM | [7] > 100 µM | [8] > 100 µM | [9] 42 µM | [10] > 100 µM | [11] > 100 µM | [12] > 100 µM | [13] > 100 µM | [14] 67.8 µM

O=[N+]([O-])C1([N+](=O)[O-])COCOC1
inactive: [1] > 100 µM | [2] > 100 µM | [3] > 100 µM | [4] > 100 µM | [5] 27.4 µM | [6] > 100 µM | [15] 94 µM | [7] 47.3 µM | [8] > 100 µM | [9] > 100 µM | [10] > 100 µM | [11] > 100 µM | [12] 28.8 µM | [16] 38.3 µM | [13] > 100 µM | [14] 17.6 µM

COc1ccc(C[N+](C)(CCCl)CCCl)c([N+](=O)[O-])c1
inactive: [1] > 100 µM | [2] > 100 µM | [3] > 100 µM | [4] 58.7 µM | [5] > 100 µM | [6] 63.8 µM | [15] > 100 µM | [7] 89.1 µM | [8] > 100 µM | [9] > 100 µM | [11] > 100 µM | [12] > 100 µM | [16] 78.7 µM | [13] > 100 µM | [14] > 100 µM

COP(C)(=O)C(N)Cc1ccccc1 (centres undefined)
inactive: [1] > 100 µM | [3] > 100 µM | [4] > 100 µM | [5] > 100 µM | [6] > 100 µM | [15] > 100 µM | [7] > 100 µM | [8] > 100 µM | [9] > 100 µM | [11] > 100 µM | [12] > 100 µM | [16] > 100 µM | [13] > 100 µM | [14] > 100 µM

CC1=CC2OC3CC4OC(=O)/C=C\C=C\C(C(C)O)OCCC(C)C(O)C(=O)OCC2(CC1O)C4(C)C31CO1 (centres undefined)
active: [15] < 0.005 µM

O=[As](O)(O)O
inactive: [1] > 100 µM | [2] > 100 µM | [3] > 100 µM | [4] > 100 µM | [5] 82.2 µM | [6] > 100 µM | [15] > 100 µM | [7] > 100 µM | [8] > 100 µM | [9] > 100 µM | [10] > 100 µM | [11] > 100 µM | [12] > 100 µM | [16] > 100 µM | [13] > 100 µM | [14] > 100 µM

CCCC[S+](N)(=O)CCC(N)P(=O)(O)O (centres undefined)
inactive: [3] > 100 µM | [4] > 100 µM | [6] > 100 µM | [15] 10 µM | [7] > 100 µM | [8] > 100 µM | [10] > 100 µM | [11] > 100 µM | [12] > 100 µM | [16] > 100 µM | [13] > 100 µM | [14] 92.3 µM

COc1ccc2nccc(C=O)c2c1
active: [2] 1 µM | [15] 0.316 µM | [10] 0.65 µM | [11] 0.083 µM | [12] 0.199 µM | [16] 0.222 µM | [14] 0.817 µM
inactive: [1] 16.5 µM | [3] > 100 µM | [4] 5.43 µM | [5] 11.7 µM | [6] 37.2 µM | [7] 15 µM | [8] 1.79 µM | [9] 36.6 µM | [13] 9.75 µM

Cc1[nH]c2c(C)c([N+](=O)[O-])c(C)c([N+](=O)[O-])c2c1[N+](=O)[O-]
inactive: [1] 11.4 µM | [2] 4.78 µM | [3] 5.68 µM | [4] 7.4 µM | [15] 4.41 µM | [17] 11.8 µM | [18] 3.26 µM | [9] 4.24 µM | [10] 4.19 µM | [11] 5.98 µM | [12] 4.98 µM | [16] 3.89 µM | [19] 2.39 µM | [13] 11.9 µM

O=[N+]([O-])C1([N+](=O)[O-])CCCc2nonc21
inactive: [1] 45.5 µM | [2] 27.7 µM | [3] 37 µM | [4] > 100 µM | [15] 26.6 µM | [7] 22.6 µM | [8] > 100 µM | [9] > 100 µM | [10] 43.1 µM | [11] 30.5 µM | [12] 28.8 µM | [16] 5.14 µM | [13] 43.4 µM | [14] 44.2 µM

Nc1nc2c(ncn2CCN(CCCl)CCCl)c(=O)[nH]1
inactive: [1] > 100 µM | [2] > 100 µM | [3] > 100 µM | [4] > 100 µM | [15] > 100 µM | [7] > 100 µM | [17] > 100 µM | [18] > 100 µM | [20] > 100 µM | [9] > 100 µM | [10] > 100 µM | [11] > 100 µM | [12] > 100 µM | [16] > 100 µM | [19] > 100 µM | [13] > 100 µM | [14] > 100 µM

NNc1nc2nonc2nc1NN
inactive: [1] 23.9 µM | [2] > 100 µM | [3] 42.8 µM | [4] 43.5 µM | [6] 74.6 µM | [15] 42.7 µM | [7] 23.4 µM | [8] 32.7 µM | [9] 20.9 µM | [10] 52.8 µM | [11] 28.8 µM | [12] 33.3 µM | [16] 51.8 µM | [13] 78 µM | [14] 55 µM
